1 compound from patent publication US10022461B2, “Pyrrolo[2,3-C]pyridines as imaging agents for neurofibrilary tangles” (MERCK SHARP & DOHME CORP., priority 2014, dated 2018) can be followed below.

Sequences of proteins named here, by UniProt entry; tags and fusion partners are left off. Residues count along the entry.
UniProt P10636, 2-758 limits assumed: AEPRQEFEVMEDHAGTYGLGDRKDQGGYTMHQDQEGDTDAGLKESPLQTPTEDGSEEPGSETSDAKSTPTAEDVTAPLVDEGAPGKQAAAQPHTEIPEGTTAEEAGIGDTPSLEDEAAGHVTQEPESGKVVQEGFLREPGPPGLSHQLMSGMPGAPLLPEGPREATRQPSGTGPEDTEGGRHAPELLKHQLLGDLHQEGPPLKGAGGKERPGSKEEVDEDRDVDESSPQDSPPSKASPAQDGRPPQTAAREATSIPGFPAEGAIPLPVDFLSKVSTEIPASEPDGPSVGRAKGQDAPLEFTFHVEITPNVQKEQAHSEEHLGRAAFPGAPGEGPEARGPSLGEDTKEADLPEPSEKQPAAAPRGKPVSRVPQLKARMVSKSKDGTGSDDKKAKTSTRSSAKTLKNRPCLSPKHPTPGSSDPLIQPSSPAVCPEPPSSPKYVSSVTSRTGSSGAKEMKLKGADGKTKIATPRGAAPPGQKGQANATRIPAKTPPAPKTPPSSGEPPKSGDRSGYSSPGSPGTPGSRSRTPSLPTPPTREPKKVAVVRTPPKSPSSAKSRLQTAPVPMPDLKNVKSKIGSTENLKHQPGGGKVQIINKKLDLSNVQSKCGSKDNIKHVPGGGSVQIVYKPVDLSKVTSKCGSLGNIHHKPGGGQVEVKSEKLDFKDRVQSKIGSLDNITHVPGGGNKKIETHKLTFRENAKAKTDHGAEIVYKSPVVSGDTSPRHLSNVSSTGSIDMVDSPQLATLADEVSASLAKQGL

SMILES strings stand for the structures.

For the test, the target named is tau (Homo sapiens, UniProt P10636). The test is described as follows: hot saturation binding assay of [^3H]-6 in AD brain homogenates. The following applies: read-out: dissociation constant, FIG. 1. Here is the method:
The frozen human brain samples of Alzheimer's disease (AD) were purchased from Analytic Biological Services Inc. They were postmortem tissue from donors with clinical diagnosis of AD. As much of the white matter was dissected out of the frontal cortex in order to enrich the tissue preparations for gray matter. Brain homogenates of gray matter enriched frontal cortex were prepared by homogenizing the tissue in ice cold Phosphate Buffered Saline (PBS), pH 7.4 at 80 mg wet weight tissue per 1 mL for 45 seconds at 4° C. on setting 16 of Polytron. The homogenate was further diluted with ice cold PBS to 30 mg wet weight tissue per 1 mL and homogenized for an additional minute as described above. Homogenates were aliquoted in 5 ml/tube and store at −70° C. until use. […] Self-block with unlabeled compound was used to determine non-specific binding. Saturation data was analyzed using Graphpad/Prism software.

`[3H]c1cc2ccn(-c3cc4ccccc4c([3H])n3)c2c([3H])n1`: the Kd is 200 pM.
